Data: patent US20070043509A1, “Albumin binding sites for evaluating drug interactions and methods of evaluating or designing drugs based on their albumin binding properties” (priority 2003, published 2007)

The chains behind the UniProt entries cited, without tags or fusion partners. Residues count along the entry.
UniProt P02768, 25-609: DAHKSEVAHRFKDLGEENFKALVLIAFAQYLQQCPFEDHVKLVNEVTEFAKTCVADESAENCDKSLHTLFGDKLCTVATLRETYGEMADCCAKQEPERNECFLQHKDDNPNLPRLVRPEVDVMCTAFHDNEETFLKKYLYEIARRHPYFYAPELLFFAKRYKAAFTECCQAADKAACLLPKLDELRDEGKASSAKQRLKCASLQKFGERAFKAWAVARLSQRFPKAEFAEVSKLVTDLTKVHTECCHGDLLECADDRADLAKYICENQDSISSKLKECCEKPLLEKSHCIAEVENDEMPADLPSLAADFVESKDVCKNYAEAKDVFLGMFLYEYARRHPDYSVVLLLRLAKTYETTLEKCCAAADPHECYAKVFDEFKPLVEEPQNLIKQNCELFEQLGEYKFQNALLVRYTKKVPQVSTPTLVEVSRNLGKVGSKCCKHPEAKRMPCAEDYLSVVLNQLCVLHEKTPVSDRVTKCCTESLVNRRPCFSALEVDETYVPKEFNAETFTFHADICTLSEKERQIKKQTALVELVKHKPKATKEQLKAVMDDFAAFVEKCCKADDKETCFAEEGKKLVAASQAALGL

Biological target: human serum albumin (Homo sapiens, UniProt P02768)
Conditions: for Albumin Binding Location: Table I, Phase I, crystal structure of HSA-drug complex, crystal code printed in brackets after drug name; for Site of contacting residues in drug-albumin complex: Table II, Phase II, site heading of residue list, residues within 5 Å of bound ligand

Structure (SMILES): CCCCNc1cc(C(=O)O)cc(S(N)(=O)=O)c1Oc1ccccc1 [Bumetanide]
- Albumin Binding Location: IIA
- Site of contacting residues in drug-albumin complex: Site IIA W214, R218, L219, R222, F223, L234, L238, V241, R257, L260,

Structure (SMILES): CCCCN1CCCCC1C(=O)Nc1c(C)cccc1C (stereo not shown) [Bupivacaine]
- Albumin Binding Location: I-III
- Site of contacting residues in drug-albumin complex: Site I-III Contacting residues:

Structure (SMILES): CCCNC(=O)NS(=O)(=O)c1ccc(Cl)cc1 [Chlorpropamide]
- Albumin Binding Location: IIIA
- Site of contacting residues in drug-albumin complex: Site IIIA L387, N391, F403, L407, R410, Y411, K414, V415, V426, L430,

Structure (SMILES): Cc1onc(-c2c(Cl)cccc2Cl)c1C(=O)N[C@@H]1C(=O)N2[C@@H]1SC(C)(C)[C@@H]2C(=O)O [Dicloxacillin]
- Albumin Binding Location: IIIA
- Site of contacting residues in drug-albumin complex: Site IIIA L387, I388, N391, C392, F395, F403, L407, R410, Y411, K414,

Structure (SMILES): COc1ccc2nc([S@@+]([O-])Cc3ncc(C)c(OC)c3C)[nH]c2c1 [Esomeprazole]
- Albumin Binding Location: IIIA
- Site of contacting residues in drug-albumin complex: Site IIIA L387, N391, L407, R410, Y411, K414, L430, L453, L457, R485,

Structure (SMILES): C=C1C[C@@H]2[C@H](CC[C@]3(C)C(=O)CC[C@@H]23)[C@@]2(C)C=CC(=O)C=C12 [Exemestane]
- Albumin Binding Location: IIA
- Site of contacting residues in drug-albumin complex: Site IIA

Structure (SMILES): CC(C)[C@H]1CC[C@H](C(=O)N[C@H](Cc2ccccc2)C(=O)O)CC1 [Nateglinide]
- Albumin Binding Location: IIA
- Site of contacting residues in drug-albumin complex: Site IIA K199, W214, R218, L219, R222, F223, L238, V241, H242, R257,

Structure (SMILES): CCc1nn(CCCN2CCN(c3cccc(Cl)c3)CC2)c(=O)n1CCOc1ccccc1 [Nefazodone]
- Albumin Binding Location: IIIA
- Site of contacting residues in drug-albumin complex: Site IIIA

Structure (SMILES): CN(C/C=C/C#CC(C)(C)C)Cc1cccc2ccccc12 [Terbinafine]
- Albumin Binding Location: IIIA
- Site of contacting residues in drug-albumin complex: Site IIIA L387, I388, N391, C392, F395, F403, L407, L408, Y411, V415,

Structure (SMILES): CC(c1cc2ccccc2s1)N(O)C(N)=O (stereo not shown) [Zileuton]
- Albumin Binding Location: IIA, IIIA, IIIB
